In ChEMBL document CHEMBL1122729, “Nonquaternary cholinesterase reactivators. 2. Alpha-heteroaromatic aldoximes and thiohydroximates as reactivators of ethyl methylphosphonyl-acetylcholinesterase in vitro” (1984) one finds inhibition data, which are given here for 14 compounds.

The chains behind the UniProt entries cited, without tags or fusion partners. Where a name states a change or a piece, a line headed by the entry shows the natural chain unless it says otherwise.
UniProt O42275: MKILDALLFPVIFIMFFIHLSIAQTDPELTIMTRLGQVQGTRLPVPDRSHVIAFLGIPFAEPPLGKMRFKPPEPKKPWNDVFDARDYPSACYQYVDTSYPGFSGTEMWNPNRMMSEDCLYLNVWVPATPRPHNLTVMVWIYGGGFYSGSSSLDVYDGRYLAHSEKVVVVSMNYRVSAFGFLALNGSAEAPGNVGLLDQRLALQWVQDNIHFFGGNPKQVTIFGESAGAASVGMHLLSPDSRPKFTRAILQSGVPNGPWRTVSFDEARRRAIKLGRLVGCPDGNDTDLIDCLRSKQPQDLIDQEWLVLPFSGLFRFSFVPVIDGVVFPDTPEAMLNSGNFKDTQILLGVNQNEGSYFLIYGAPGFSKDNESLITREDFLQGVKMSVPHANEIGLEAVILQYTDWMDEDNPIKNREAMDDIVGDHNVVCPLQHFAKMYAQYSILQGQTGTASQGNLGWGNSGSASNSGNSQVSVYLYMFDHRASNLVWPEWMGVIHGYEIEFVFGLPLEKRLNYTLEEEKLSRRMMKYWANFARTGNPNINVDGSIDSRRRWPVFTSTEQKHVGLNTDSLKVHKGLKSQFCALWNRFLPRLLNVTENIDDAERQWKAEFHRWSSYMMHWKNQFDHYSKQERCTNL

Assay [1] has as its target Acetylcholinesterase (Electrophorus electricus) (UniProt O42275). Nature of the assay: Compound was evaluated in vitro at 2 uM for inhibition of acetylcholinesterase (AChE)at a pH of 8 in the presence of 7.5*10e-4 acetylthiocholine.
Assay [2] has the same target. Nature of the assay: Compound was evaluated in vitro at 5 uM for inhibition of acetylcholinesterase (AChE)at a pH of 8 in the presence of 7.5*10e-4 acetylthiocholine.
For assay [3] the target is unchanged. Nature of the assay: Compound was evaluated in vitro at 50 uM for inhibition of acetylcholinesterase (AChE)at a pH of 8 in the presence of 7.5*10e-4 acetylthiocholine.
The target is the same in assay [4]. Nature of the assay: Compound was evaluated in vitro at 25 uM for inhibition of acetylcholinesterase (AChE)at a pH of 8 in the presence of 7.5*10e-4 acetylthiocholine.
Assay [5] shares this target. Nature of the assay: Compound was evaluated in vitro at 10 uM for inhibition of acetylcholinesterase (AChE)at a pH of 8 in the presence of 7.5*10e-4 acetylthiocholine.
Assay [6] has the same target. Nature of the assay: Compound was evaluated in vitro at 100 uM for inhibition of acetylcholinesterase (AChE)at a pH of 8 in the presence of 7.5*10e-4 acetylthiocholine.
Assay [7] has the same target. Nature of the assay: Concentration at 5 uM that inhibits 50%of acetylcholinesterase activity evaluated in vitro at a pH of 8 in the presence of 7.5x10E-4 acetylthiocholine.
Assay [8] has the same target. Nature of the assay: Concentration at 10 uM that inhibits 50%of acetylcholinesterase activity evaluated in vitro at a pH of 8 in the presence of 7.5x10E-4 acetylthiocholine.
Assay [9] shares this target. Nature of the assay: Concentration at 25 uM that inhibits 50%of acetylcholinesterase activity evaluated in vitro at a pH of 8 in the presence of 7.5x10E-4 acetylthiocholine.
For assay [10] the target is unchanged. Nature of the assay: Compound was evaluated in vitro at 40 uM for inhibition of acetylcholinesterase (AChE)at a pH of 8 in the presence of 7.5*10e-4 acetylthiocholine.
Assay [11] shares this target. Nature of the assay: Compound was evaluated in vitro at 15 uM for inhibition of acetylcholinesterase (AChE)at a pH of 8 in the presence of 7.5*10e-4 acetylthiocholine.
Assay [12] shares this target. Nature of the assay: Compound was evaluated in vitro at 1.50 uM for inhibition of acetylcholinesterase (AChE)at a pH of 8 in the presence of 7.5*10e-4 acetylthiocholine.

Regarding `CCN(CC)CCS/C(=N/O)c1cnsn1`, the inhibition is 4% in [1]; 13.4% in assay [2]; 9.1% in assay [3]; 17.4% in [4]; 10% in [5].

In the case of `O/N=C/c1nnc(-c2ccccc2)o1`, the inhibition in assay [5] came to 10.4%.

On to `Cc1noc(/C=N/O)n1`, for which the inhibition in assay [1] is 5.6%.

For the compound `Cc1nsnc1/C=N\O`, the inhibition in [5] was found to be 7.5%.

As to `O/N=C/c1cnns1`, in [1], the inhibition is -4%.

For `O/N=C/c1nc(-c2ccccc2)no1`, the inhibition in assay [5] was 1.7%.

As to `CCN(CC)CCS/C(=N/O)c1nonc1C`, the inhibition in [3] stood at 26.9%; in assay [5], 8.4%; in assay [6], 39.3%.

Regarding `O/N=C\c1cnsn1`, the inhibition in [5] came out at 5.7%.

Consider `CCN(CC)CCS/C(=N\O)c1nnc(-c2ccccc2)o1`, for which the inhibition in assay [1] stood at 2.53%; in [7], 16.9%; in assay [8] it was 25.5%; in assay [9], 54.2%.

As for `Cc1nsc(/C=N/O)n1`, the inhibition in assay [1] is -1.1%.

Regarding `CCN(CC)CCS/C(=N\O)c1nc(C)no1`, the inhibition was determined as 34.9% in assay [3], 22.2% in assay [4] and 19% in assay [5].

On to `CCN(CC)CCS/C(=N\O)c1nc(-c2ccccc2)no1`, for which the inhibition was 64.3% in assay [2]; 80.6% in [10]; 84% in assay [3]; 62.1% in assay [11]; 20.3% in [12].

Consider `Cc1nonc1/C=N/O`, for which the inhibition in assay [5] was found to be 8.7%.

As to `CCN(CC)CCS/C(=N/O)c1nsnc1C`, the inhibition in assay [3] worked out at 15.4%; in assay [5], 9.97%; in assay [6], 25.9%.
